## Antibody variant affinities, Ab-91 heavy chain, assay 2

The measurements come from Engelhart et al. 2022 (doi:10.1038/s41597-022-01779-4) through the FLAb antibody collection.

Target peptide (SARS-CoV-2 spike, HR2 region): PDVDLGDISGINAS

The variants keep the light chain, the linker and the frameworks of Ab-91 (scFv order VL, a (GGGGS)3 linker, VH).
VL: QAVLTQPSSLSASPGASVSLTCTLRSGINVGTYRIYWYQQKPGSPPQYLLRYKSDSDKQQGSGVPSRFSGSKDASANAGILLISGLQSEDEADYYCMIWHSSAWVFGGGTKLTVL
VH: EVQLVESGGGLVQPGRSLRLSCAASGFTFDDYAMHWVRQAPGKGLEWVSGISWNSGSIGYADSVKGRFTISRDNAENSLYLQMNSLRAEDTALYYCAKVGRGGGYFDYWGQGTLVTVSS

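The starting antibody came from a phage panning campaign against this peptide. Library AAYL51 holds single substitutions and randomly drawn double and triple substitutions in the CDRs. AlphaSeq pools MATa yeast showing the antibodies with MATalpha yeast showing the peptide. After mating in shaken culture at 30 °C for 16 h, diploids were selected and their barcode pairs sequenced. The ratio of observed to expected reads was calibrated, replicate by replicate, on BCL2-family standards whose Kd was known from biolayer interferometry. Mating was done three times.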

Each variant is given by its three heavy chain CDRs, as the data file delimits them; those of the parent are GFTFDDYAMH, GISWNSGSIGYADSVK, VGRGGGYFDY.
The read-out is the apparent dissociation constant on a log10 scale (nM): the lower, the stronger.
"ND" marks a missing value. The strain was present, yet no cells mated with the target were sequenced in that replicate, which points to weak or no binding.
Parent in this assay: reference entry 1.86, copy in this library 0.88.

CDR-H1,CDR-H2,CDR-H3,"log10 Kd, replicates",empty controls
GFTFDDYAMQ,GISWNSGSQGYADSVK,VGRGGGYFGY,5.28 4.68 ND,4/9 (4.43)
GFTFDDYAMH,GRSWASGSIGYADSVK,VGRGGGYFDD,ND 4.66 ND,8/9 (4.67)
GFTFDDYAMH,GISWNPGSNGYADSVK,VGRGGGYFDH,3.73 3.61 3.68,0/9
GFTFVDYAMH,GISWNWGSIGYADAVK,VGRGGGYFDY,6.16 5.23 5.47,5/9 (4.95)
GFFFDEYAMH,GISWNSGSIGYASSVK,VGRGGGYFDY,2.80 2.87 2.66,4/9 (4.54)
GFYFDDYAMH,GMSWNSGSIGYADSVK,VGRGPGYFDY,ND ND ND,4/9 (4.82)
GFTFDIYHWH,GISWNSGSIGYADSVK,VGRGGGYFDY,ND ND ND,0/9
GFTFDDYNMH,GIVWNSGSIGYADSVK,VGRGGGYRDY,3.50 ND ND,4/9 (4.50)
GFRFDDYAMH,GWSWLSGSIGYADSVK,VGRGGGYFDY,5.30 ND ND,1/9 (3.91)
GFTTDDEAMG,GISWNSGSIGYADSVK,VGRGGGYFDY,ND ND ND,3/9 (4.58)
VFTFDDYAMH,GISWNSGSIGYAEAVK,VGRGGGYFDY,ND ND ND,1/9 (5.52)
AFTFDDYAMH,GISWNSGSIWYADSVK,VGRGGGYFDY,ND ND ND,1/9 (2.35)
DFTFDCYAMH,GISWTSGSIGYADSVK,VGRGGGYFDY,4.07 4.03 4.62,5/9 (4.87)
GFTFDDYAMH,GISWNSGSNGYADSVT,VNRGGGYFDY,4.39 ND 4.60,4/9 (4.34)
GFTFDDYAMH,GISWNSGSIGYAHSVK,VWRGGGSFDY,4.93 ND 4.13,2/9 (3.84)
GFTSDDYAMH,GISWNSGSPGYANSVK,VGRGGGYFDY,3.92 4.95 4.63,2/9 (4.40)
GGTFDDYAMH,GISWASGSIGVADSVK,VGRGGGYFDY,ND 5.09 5.30,4/9 (5.05)
GFTFDDYAMH,GIGWNSGSIGYADSVK,WARGGGYFDY,5.40 3.71 5.11,1/9 (4.44)
GFTFDDYAMH,GISWNSGSIGVACSVK,VGLGGGYFDY,ND 4.35 ND,5/9 (5.09)
GFTFDDWHMH,KISWNSGSIGYADSVK,VGRGGGYFDY,4.64 ND ND,1/9 (4.18)
GFKFDDYAMH,RHSWNSGSIGYADSVK,VGRGGGYFDY,5.05 ND ND,0/9
GFTFDDYAMH,MISWFSGSIGYADSVK,VGRGPGYFDY,6.39 5.12 4.37,6/9 (4.88)
MFTFDDYAMH,GISWNSGSIGYADSVK,VGRGGGYFDP,3.82 5.00 ND,6/9 (4.43)
GFTFDDIAMH,GSSWNSGSYGYADSVK,VGRGGGYFDY,ND ND ND,0/9
YFTFDIYAMH,GISWNSGSITYADSVK,VGRGGGYFDY,ND ND ND,3/9 (4.69)
GFTFDDYAMH,GISWNGGSIGIADSVK,VGRGGGYFPY,ND ND ND,0/9
GFTFDDYAMH,GISWNSGNIGYADSVK,VGRGGGYNDY,3.09 4.15 ND,2/9 (3.61)
GFTFDEYAMH,GISWNSGSIGYADSVK,WGRGGGEFDY,4.94 5.14 4.66,4/9 (4.56)
GFTFDDYAMH,WISWNYGSIGYADSVK,VARGGGYFDY,ND ND ND,1/9 (4.59)
GFTFDDYAMH,GISWNSGSIGYADSVK,VGRGGGIFDG,4.66 ND 4.42,3/9 (4.36)
GFNFEDYAMH,GISWNSGSIGYAMSVK,VGRGGGYFDY,3.06 3.28 3.39,7/9 (4.57)
GFTFDDYAMH,FISWNSGKIGYADSVK,YGRGGGYFDY,4.41 ND 5.48,6/9 (4.78)
GFTFDDYAMH,GISWNWGSIGYADSVE,VGRGGDYFDY,ND ND ND,1/9 (3.99)
GFTFDDDAMH,GISWNSGSNGYADSVK,VGKGGGYFDY,4.45 4.50 ND,8/9 (5.11)
GFTFDDYAMH,GISWNSGVIGYADSVK,VGRGGGYFMY,4.53 5.26 ND,3/9 (4.75)
GFTFDDYAMH,QISWNSGSIGYAGSVK,VGRGGGYFDT,ND 3.68 ND,2/9 (4.87)
AFTFDDYAMH,RISWNSGSIGYAESVK,VGRGGGYFDY,4.76 ND ND,0/9
GFTVDDYPMH,GISWNSGSIGYADSVK,VGRGSGYFDY,ND ND ND,0/9
GFTFDDYHMH,GISWASLSIGYADSVK,VGRGGGYFDY,4.17 ND ND,4/9 (4.56)
GFTFDDYAMH,GISWGSGSIGYAMSVK,VGRGGGYFDS,ND ND ND,2/9 (4.14)
GFTFDDYAMY,GISWNSLSIGYADSVK,VGRGGGYFDY,4.82 4.15 5.10,5/9 (4.93)
GFTFDDYAMH,GIDWNKGSIGYADSVK,VGRGGCYFDY,ND ND ND,1/9 (4.04)
GFTFDDYAMH,GIIWNSGSIGRATSVK,VGRGGGYFDY,ND ND ND,0/9
GFTFDDYANH,GISWTSGSIGYADSPK,VGRGGGYFDY,5.26 ND ND,5/9 (5.27)
GFTFDDYALH,GISWNSGSIGYADSVK,WGRGGGYFDY,ND ND ND,0/9
GFTFDDYAML,GISWNSGSIGYADSVK,VGRGGGYFDY,ND ND ND,1/9 (3.75)
GFTFDDTAMH,GISWNSGSIGYADSVK,VGRGKGYDDY,ND ND ND,1/9 (3.77)
GFTFSDYAMH,GISVNSGSIGYADSVI,VGRGGGYFDY,ND ND ND,0/9

The first 4 variants above that were never detected:

CDR-H1,CDR-H2,CDR-H3,"log10 Kd, replicates",empty controls
GFYFDDYAMH,GMSWNSGSIGYADSVK,VGRGPGYFDY,ND ND ND,4/9 (4.82)
GFTFDIYHWH,GISWNSGSIGYADSVK,VGRGGGYFDY,ND ND ND,0/9
GFTTDDEAMG,GISWNSGSIGYADSVK,VGRGGGYFDY,ND ND ND,3/9 (4.58)
VFTFDDYAMH,GISWNSGSIGYAEAVK,VGRGGGYFDY,ND ND ND,1/9 (5.52)

Empty control strains, which show no peptide, gave a signal in 21% of pairings with library AAYL51; the median was 4.54 and 95% of these signals were weaker than 3.26. No background was subtracted. Also given: how often the same scFv was detected with the empty control strains, with their mean in brackets.